Assay results as given in patent US20220133841A1 (Ra Pharmaceuticals, Inc., priority 2018, published 2022).
Where two headings read alike, the source gives them in different places.

Assays:
[1] = not told
[2] = system: AChR autoantibody-positive patients with refractory gMG; settings: cited from earlier work
[3] = cited from earlier work
[4] = system: AChR autoantibody-positive patients; settings: 26 weeks, cited from earlier work

Substance: eculizumab
- Percentage diffused from upper to lower reservoir [1]: less than 20%
- Patients achieving a ≥3-point improvement in QMG score ([2]; after initial 16-week treatment period, placebo 4 out of 7): 6 out of 7
- Time to impact on QMG score after initiating treatment ([2]; favored eculizumab vs placebo across all visits (p=0.0144)): ≤ 1 week
- Patients achieving an 8-point reduction in QMG score ([2]; of responders, placebo arm 1): 4 patients
- Eculizumab biodistribution % (inferred) ([3]; Bone): 7.27%
- Eculizumab biodistribution % (inferred) ([3]; Brain): 0.35%
- Eculizumab biodistribution % (inferred) ([3]; Fat): 4.78%
- Eculizumab biodistribution % (inferred) ([3]; Heart): 10.2%
- Eculizumab biodistribution % (inferred) ([3]; Large Intestine): 5.03%
- Eculizumab biodistribution % (inferred) ([3]; Liver): 12.1%
- Eculizumab biodistribution % (inferred) ([3]; Lung, based on Shah et al. 2013): 14.9%
- Eculizumab biodistribution % (inferred) ([3]; Lymph nodes): 8.46%
- Eculizumab biodistribution % (inferred) ([3]; Muscle): 3.97%
- Eculizumab biodistribution % (inferred) ([3]; Pancreas): 6.4%
- Eculizumab biodistribution % (inferred) ([3]; Small intestine): 5.22%
- Eculizumab biodistribution % (inferred) ([3]; Spleen): 12.8%
- Eculizumab biodistribution % (inferred) ([3]; Stomach): 4.98%
- Eculizumab biodistribution % (inferred) ([3]; Testes): 5.88%
- Eculizumab biodistribution % (inferred) ([3]; Thymus): 6.62%
- Change from baseline in QMG score (secondary endpoint) ([4]; p=0.0129): statistically significant
- Change from baseline in MG-ADL relative to placebo (primary endpoint) ([4]; p=0.0698): not associated with a statistically significant benefit
